The values below are quoted from earlier work in US5928915A, “CHO cell sialidase by recombinant DNA technology” (Genentech, Inc., priority 1997, dated 1999).

Series [1] deals with plasma membrane sialidase (adenovirus transformed kidney cells). As to conditions: cited from earlier work.
Series [2] has as its system lysosomal sialidase (fibroblasts). To be noted: cited from earlier work.

Regarding `CC(=O)N[C@H]1[C@H]([C@H](O)[C@H](O)CSc2ccc(N=[N+]=[N-])cc2[N+](=O)[O-])OC(C(=O)O)=C[C@@H]1O` [9-PANP-Neu5Ac2en, 9-S-(4'-azido-2'-nitro-phenyl)-5-acetamido-2,6 anhydro-9-thio-2,5,9-trideoxy-D-glycero-D-galacto-non-2-enonic acid], the inhibition in words entry in series [1] and in series [2] was “strongly inhibited” throughout.
